Laboratory results published in ChEMBL document CHEMBL1127438, “Substituted (S)-phenylpiperidines and rigid congeners as preferential dopamine autoreceptor antagonists: synthesis and structure-activity relationships” (J Med Chem, 1994).

The chains behind the UniProt entries cited, without tags or fusion partners.
UniProt P61169, whole entry: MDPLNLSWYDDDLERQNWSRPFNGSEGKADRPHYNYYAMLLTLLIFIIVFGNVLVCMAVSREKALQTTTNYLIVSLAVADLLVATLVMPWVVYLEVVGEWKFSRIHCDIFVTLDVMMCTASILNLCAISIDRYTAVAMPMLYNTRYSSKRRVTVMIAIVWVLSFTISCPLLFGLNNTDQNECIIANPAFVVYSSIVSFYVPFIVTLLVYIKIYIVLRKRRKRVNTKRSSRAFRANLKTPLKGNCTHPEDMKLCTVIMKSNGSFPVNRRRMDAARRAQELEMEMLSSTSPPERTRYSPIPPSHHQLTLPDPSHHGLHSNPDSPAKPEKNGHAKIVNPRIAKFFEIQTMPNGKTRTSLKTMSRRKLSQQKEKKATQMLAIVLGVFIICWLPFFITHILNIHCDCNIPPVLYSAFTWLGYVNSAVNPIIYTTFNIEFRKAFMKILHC
UniProt P35462, whole entry: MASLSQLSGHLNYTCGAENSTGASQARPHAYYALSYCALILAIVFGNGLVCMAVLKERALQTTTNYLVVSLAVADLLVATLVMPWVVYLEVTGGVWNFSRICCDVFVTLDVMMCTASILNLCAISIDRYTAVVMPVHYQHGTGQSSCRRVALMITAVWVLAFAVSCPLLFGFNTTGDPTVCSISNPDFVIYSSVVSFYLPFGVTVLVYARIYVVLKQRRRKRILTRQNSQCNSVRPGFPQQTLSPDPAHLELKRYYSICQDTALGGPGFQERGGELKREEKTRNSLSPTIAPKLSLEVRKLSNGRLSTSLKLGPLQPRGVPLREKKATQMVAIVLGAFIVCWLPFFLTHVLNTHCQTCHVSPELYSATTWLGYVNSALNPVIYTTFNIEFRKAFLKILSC
UniProt P14416, whole entry: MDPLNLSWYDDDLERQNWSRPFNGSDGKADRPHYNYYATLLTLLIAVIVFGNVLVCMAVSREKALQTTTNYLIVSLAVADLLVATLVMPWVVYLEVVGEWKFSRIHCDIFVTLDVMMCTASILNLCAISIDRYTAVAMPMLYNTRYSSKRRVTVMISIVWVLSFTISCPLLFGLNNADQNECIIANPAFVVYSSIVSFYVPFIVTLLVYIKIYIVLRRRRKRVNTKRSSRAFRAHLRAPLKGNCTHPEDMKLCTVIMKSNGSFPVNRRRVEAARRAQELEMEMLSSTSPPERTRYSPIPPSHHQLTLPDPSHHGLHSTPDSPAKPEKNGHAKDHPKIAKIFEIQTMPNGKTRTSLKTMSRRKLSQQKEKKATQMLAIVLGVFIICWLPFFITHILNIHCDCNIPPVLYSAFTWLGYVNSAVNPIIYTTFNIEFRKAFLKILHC

How the values were obtained:
[1] = biological target: T1, D(2) dopamine receptor (Rattus norvegicus, UniProt P61169)
[2] = biological target: T1, D(2) dopamine receptor; assay: Tested for affinity against striatal dopamine autoreceptor (DA) D2 receptors using [3H]spiperone as radioligand in rats.
[3] = biological target: D(3) dopamine receptor (Homo sapiens, UniProt P35462); assay: Tested for in vitro binding affinity against cloned mammalian dopamine D3 receptor, expressed in CHO-K1 cells, using [3H]spiperone as radioligand; format: cell-based
[4] = biological target: T2, D(2) dopamine receptor (Homo sapiens, UniProt P14416); assay: biochemical
[5] = biological target: T2, D(2) dopamine receptor; assay: biochemical; remark: listed apart in the source

Question: For N#Cc1cccc([C@@H]2CCCN(CC3CC3)C2)c1, which Ki [1] is on record?
Answer: 3100 nM

Question: How did the Ki [2] turn out when CCCN1CCC[C@@H](c2ccccc2OS(=O)(=O)C(F)(F)F)C1 was run?
Answer: 92 nM

Question: CCCN1CCC[C@@H](c2cccc(O)c2)C1 [PRECLAMOL] was tested. Which Ki [3] did it give?
Answer: 132 nM

Question: And the Ki [4]?
Answer: 8.5 nM

Question: And the Ki [5]?
Answer: 39 nM
